Earlier results on one substance are cited in US11020395B2, “Cycloalkyl substituted triazole compounds as agonists of the APJ receptor” (AMGEN INC., priority 2016, dated 2021).

The conditions of the series: in vivo; cited from earlier work.

On to Apelin-13, for which the plasma half-life is on record as under 5 min.
